Laboratory results taken from ChEMBL document CHEMBL1139498, “Discovery of potent, orally available vanilloid receptor-1 antagonists. Structure-activity relationship of N-aryl cinnamides” (J Med Chem, 2005).
pIC50: −log10 of the molar value.

By UniProt entry, the sequences of proteins in these tests, tags left out.
UniProt Q8NER1, whole entry: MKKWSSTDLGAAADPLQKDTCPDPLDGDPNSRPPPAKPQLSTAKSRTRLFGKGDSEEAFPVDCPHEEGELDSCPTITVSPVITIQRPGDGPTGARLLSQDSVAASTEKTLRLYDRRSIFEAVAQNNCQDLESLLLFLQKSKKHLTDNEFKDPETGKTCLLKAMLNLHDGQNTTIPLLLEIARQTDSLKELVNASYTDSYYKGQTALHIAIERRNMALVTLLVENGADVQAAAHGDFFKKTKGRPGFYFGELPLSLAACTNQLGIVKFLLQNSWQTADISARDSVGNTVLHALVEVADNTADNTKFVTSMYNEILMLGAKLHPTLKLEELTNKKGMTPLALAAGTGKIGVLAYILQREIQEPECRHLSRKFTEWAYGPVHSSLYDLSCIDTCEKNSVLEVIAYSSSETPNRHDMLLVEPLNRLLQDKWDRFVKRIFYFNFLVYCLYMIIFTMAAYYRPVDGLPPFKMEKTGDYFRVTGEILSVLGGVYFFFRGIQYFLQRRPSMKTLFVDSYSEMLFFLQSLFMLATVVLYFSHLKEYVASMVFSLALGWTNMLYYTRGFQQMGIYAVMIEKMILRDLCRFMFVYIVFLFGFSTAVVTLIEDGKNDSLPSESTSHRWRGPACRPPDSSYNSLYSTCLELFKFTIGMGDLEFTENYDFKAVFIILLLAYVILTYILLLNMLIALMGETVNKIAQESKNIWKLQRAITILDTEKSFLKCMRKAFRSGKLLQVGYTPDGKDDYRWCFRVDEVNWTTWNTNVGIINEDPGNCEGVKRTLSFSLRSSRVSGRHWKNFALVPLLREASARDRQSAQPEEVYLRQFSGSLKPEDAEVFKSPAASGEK

These molecules were tested against Transient receptor potential cation channel subfamily V member 1 (Homo sapiens, UniProt Q8NER1) (assay: Inhibition of capsaicin-induced calcium uptake by transient receptor potential vanilloid type 1 expressed in CHO cells).
Type: functional, cell-based

Structure (SMILES)	pIC50
CC(C)(C)c1ccc(/C=C/C(=O)Nc2ccc3c(c2)OCCO3)cc1 (stereo in doubt; 34)	5.92
CC(C)(C)c1ccc(/C=C/C(=O)Oc2ccc3c(c2)OCCO3)cc1	6.17
CC(C)(C)c1ccc(/C=C/C(=O)Nc2ccc3cccnc3c2)cc1	8.96
C/C(=C\C(=O)Nc1ccc2c(c1)OCCO2)c1ccc(C(C)(C)C)cc1	7.41
